Test results reported in patent US9161951B2, “Parenteral nutrition composition containing iron” (priority 2005, dated 2015).

Key:
[1] = cited from earlier work
[2] = 30-hour period of testing, 25±2° C.

Row | Substance | effect of iron compound added to lipid-containing TPN/PN admixture ([1]; TPN formulation containing lipid) | compatibility with amino acid-dextrose parenteral admixtures ([1]; amino acid-dextrose parenteral admixtures (no lipid)) | stability of nutritional emulsions / emulsion integrity (creaming, phase-separation, visible fat globule formation) [2]
1 | iron dextran | caused breakdown of the admixture, coalescence of lipid droplets, and cracking and creaming of the lipid component | compatibility | –
2 | soluble ferric pyrophosphate [soluble FePPi] | – | – | did not significantly alter the stability of nutritional emulsions or disrupt their integrity
